This experiment concerns the target Sodium-dependent serotonin transporter (Rattus norvegicus, UniProt P31652). The experiment is described as follows: Compound was tested for binding affinity to Serotonin transporter sites in homogenates prepared from rat cortical membranes using [3H]paroxetine as radioligand.

Chains of the proteins cited; added tags and fusions are not shown.
UniProt P31652, whole entry: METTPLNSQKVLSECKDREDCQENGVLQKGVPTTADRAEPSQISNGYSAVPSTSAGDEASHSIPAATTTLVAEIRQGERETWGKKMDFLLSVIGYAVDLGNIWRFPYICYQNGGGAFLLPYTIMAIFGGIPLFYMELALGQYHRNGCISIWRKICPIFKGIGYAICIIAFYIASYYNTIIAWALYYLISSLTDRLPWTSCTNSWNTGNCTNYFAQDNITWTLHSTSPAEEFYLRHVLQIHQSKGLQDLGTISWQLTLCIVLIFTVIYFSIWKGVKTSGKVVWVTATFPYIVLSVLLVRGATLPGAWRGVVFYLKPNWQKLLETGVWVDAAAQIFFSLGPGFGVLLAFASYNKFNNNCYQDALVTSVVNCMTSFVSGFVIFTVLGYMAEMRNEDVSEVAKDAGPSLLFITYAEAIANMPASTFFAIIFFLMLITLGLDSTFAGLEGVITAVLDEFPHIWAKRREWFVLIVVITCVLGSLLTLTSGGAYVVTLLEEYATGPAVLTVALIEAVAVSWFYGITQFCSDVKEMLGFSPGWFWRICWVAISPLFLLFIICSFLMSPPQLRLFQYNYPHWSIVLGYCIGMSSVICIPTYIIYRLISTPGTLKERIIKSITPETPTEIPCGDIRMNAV

One may read the IC50 as the concentration at which inhibition is half-maximal. Lower therefore signals greater potency in that assay. Consider `COC(=O)[C@H]1[C@@H](OC(=O)c2ccccc2)C[C@@H]2CC[C@H]1N2C` [COCAINE], for which the IC50 came to 207 nM. In other words, the sub-micromolar range.

The values are drawn from ChEMBL document CHEMBL1125816, “[123I]-2 beta-carbomethoxy-3 beta-(4-iodophenyl)tropane: high-affinity SPECT radiotracer of monoamine reuptake sites in brain” (J Med Chem, 1991).
